From PubChem BioAssay AID2742 (NMMLSC, 2010)
The list shows a part of the results, in another mix than the full data. The source made the active and inactive calls.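 Rule for the calls: active = fitted half-maximal concentration for changing background-corrected GFP signal at or below a set limit; inactive = the rest.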

Assay: TOR pathway reporter MEP2-GFP, concentration series – S. cerevisiae, flow cytometry GFP, MLPCN hits, dose response (AID 2742);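 note: GFP tag reports level of MEP2 protein as a downstream target of TOR signalling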
Details: S. cerevisiae MEP2-GFP strain, 3 h, at 33 µM (top of the series)

With `C[N+]1=C2C=CC=CC=C2SC12C([N+](=O)[O-])=CC([N+](=O)[O-])=C[C-]2[N+](=O)[O-]` (stereo unspecified) the GFP fluorescence (kMESF), higher = increase was inactive: 6.1%.
